“And” between values parts separate entries of the source, which are not always exact repeats. Equal values may be shown once. Read-outs that look alike come from different tables or passages of the source.
What was measured:
[1] = tested on: Sprague-Dawley rats (2-3 years old); details: 8 weeks; for Number of dead animals: oral, 10 elderly rats
Source text: (§1) The aim of this experiment was to study the relationship between the blood level of AKG and survival of elderly rats. Forty Sprague-Dawley rats randomly chosen (2-3 years old) from the Department of Cell & Organisms Biology in Lund University were used in the experiment. The rats were divided into four groups, 10 rats each, two control groups and two experiment groups. […] The mixtures were titrated with 0.01 M NaOH to correct the pH.
(§2) Blood samples were taken at the beginning of the experiment from all rats and blood AKG levels were estimated. Experimental time was 8 weeks and parameters as AKG blood levels and survival were monitored.

in vivo = details: for AKG Day 1 (blood, individual rats): beginning of the experiment; for AKG Day 1 (blood, individual rats) / concentration at 1 day: baseline; for concentration at 56 day / concentration at 1 day: Sprague-Dawley, rat, in vivo; for concentration at 1 day: Average AKG blood level before the experiment (Day 1)
Source text: as §1, §2

Q: Which “Number of dead animals” value ([1]; Experiment Group I, Na2AKG * 2H2O (2.28 g)) does the source give for `O=C([O-])CCC(=O)C(=O)[O-].[Na+].[Na+]` [Na2AKG * 2H2O, sodium alpha-ketoglutarate] here?
A: Its value is 0.

Q: And the “Number of dead animals” value ([1]; Experiment Group II, Na2AKG * 2H2O (22.8 g))?
A: The value was 0.

Q: And the “Survival rate of the rats in the experimental groups” value ([1]; elderly rats)?
A: Its value is “drastically improved”.

Q: And the “AKG Day 1 (blood, individual rats)” value (in vivo; Experiment Group I (2.28 g))?
A: The value was 0.34 µg/mL and 0.31 µg/mL and <0.1 µg/mL and 0.2 µg/mL and 0.54 µg/mL and 0.32 µg/mL and 0.15 µg/mL and 0.6 µg/mL.

Q: What about the “AKG Day 56 (blood, individual rats)” value (in vivo; Experiment Group I (2.28 g), end of the experiment) of the same compound?
A: The value was 0.75 μg/ml and 0.82 μg/ml and 0.78 μg/ml and 1.04 μg/ml and 0.7 μg/ml and 0.6 μg/ml (2×) and 0.9 μg/ml.

Q: What about the “AKG Day 1 (blood, individual rats)” value (in vivo; Experiment Group II (22.8 g)) of the same compound?
A: Its value is 0.34 µg/mL and 0.24 µg/mL and 0.23 µg/mL and 0.75 µg/mL and 0.5 µg/mL and 0.42 µg/mL and 0.25 µg/mL and 015 µg/mL.

Q: What about the “AKG Day 56 (blood, individual rats)” value (in vivo; Experiment Group II (22.8 g), end of the experiment) of the same compound?
A: Its value is 1.5 μg/ml and 0.98 μg/ml and 0.89 μg/ml and 0.7 μg/ml and 1.4 μg/ml and 1.11 μg/ml and 1.07 μg/ml and 0.95 μg/ml (2×) and 0.97 μg/ml.

Q: What about the concentration at 56 day (in vivo; 2.28 g) of the same compound?
A: Its concentration at 56 day is 800 ± 140 ng/mL.

Q: What about the concentration at 56 day (in vivo; 2.28 g, AKG Day 56 (blood, individual rats), Experiment Group I (2.28 g), end of the experiment) of the same compound?
A: Its concentration at 56 day is 950 ng/mL.

Q: And the concentration at 1 day (in vivo; 2.28 g, Experiment Group I (2.28 g))?
A: The concentration at 1 day was 290 ± 160 ng/mL.

Q: What about the concentration at 56 day (in vivo; 22.8 g) of the same compound?
A: Its concentration at 56 day is 1050 ± 230 ng/mL.

Q: And the concentration at 1 day (in vivo; 22.8 g, Experiment Group II (22.8 g))?
A: The concentration at 1 day was 330 ± 180 ng/mL.

Q: And the concentration at 56 day (in vivo; po, Blood level of AKG restored by oral administration, elderly rats (over 24 months))?
A: Its concentration at 56 day is about 1000 ng/mL.

Reference: patent US20100222282A1, “METHOD OF DIAGNOSIS AND METHOD OF TREATMENT” (ENTRESS AB, priority 2006, published 2010)
